Tests used:
Type in all cases: functional, cell-based
HepG2 = test: Photodynamic anticancer activity in human HepG2 cells preincubated for 2 hrs followed by light exposure at 27 J/cm2 for 30 mins and subsequent incubation for 24 hrs by MTT assay
B16-F10 = test: Photodynamic anticancer activity in mouse B16F10 cells preincubated for 2 hrs followed by light exposure at 27 J/cm2 for 30 mins and subsequent incubation for 24 hrs by MTT assay
MCF7 = test: Photodynamic anticancer activity in human MCF7 cells preincubated for 2 hrs followed by light exposure at 27 J/cm2 for 30 mins and subsequent incubation for 24 hrs by MTT assay

Measured: Activity

O=C([O-])c1c(Cl)c(Cl)c(Cl)c(Cl)c1-c1c2cc(I)c(=O)c(I)c-2oc2c(I)c([O-])c(I)cc12.[Na+].[Na+] [ROSE BENGAL SODIUM]
active: HepG2 = Dose-dependent effect | B16-F10 = Dose-dependent effect | MCF7 = Dose-dependent effect

O=C(O)CCCCCCCOC(=O)c1c(Cl)c(Cl)c(Cl)c(Cl)c1-c1c2cc(I)c(=O)c(I)c-2oc2c(I)c(O)c(I)cc12
active: HepG2 = Dose-dependent effect | B16-F10 = Dose-dependent effect | MCF7 = Dose-dependent effect

O=C(CCCCCCCOC(=O)c1c(Cl)c(Cl)c(Cl)c(Cl)c1-c1c2cc(I)c(=O)c(I)c-2oc2c(I)c(O)c(I)cc12)Nc1cccc2ccccc12
active: HepG2 = Dose-dependent effect | B16-F10 = Dose-dependent effect | MCF7 = Dose-dependent effect

COCCOCCOC(=O)CCCCCCCOC(=O)c1c(Cl)c(Cl)c(Cl)c(Cl)c1-c1c2cc(I)c(=O)c(I)c-2oc2c(I)c(O)c(I)cc12
active: HepG2 = Dose-dependent effect | B16-F10 = Dose-dependent effect | MCF7 = Dose-dependent effect

COCCOCCOCCOCCOC(=O)CCCCCCCOC(=O)c1c(Cl)c(Cl)c(Cl)c(Cl)c1-c1c2cc(I)c(=O)c(I)c-2oc2c(I)c(O)c(I)cc12
active: HepG2 = Dose-dependent effect | B16-F10 = Dose-dependent effect | MCF7 = Dose-dependent effect

O=C(CCCCCCCOC(=O)c1c(Cl)c(Cl)c(Cl)c(Cl)c1-c1c2cc(I)c(=O)c(I)c-2oc2c(I)c(O)c(I)cc12)Nc1cccc2cccnc12
active: HepG2 = Dose-dependent effect | B16-F10 = Dose-dependent effect | MCF7 = Dose-dependent effect
